This assay can be described thus: NCI Yeast Anticancer Drug Screen. Data for the wt1 strain (AID 149).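 Further: 0% = growth of vehicle-treated wt1 cultures.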 The following applies: S. cerevisiae wt1 strain (SPY 50644) growth inhibition, hits give high values. The procedure:
Growth inhibition of yeast strains with defined genetic alterations is measured as a screen for potential anti-cancer activity. Selected strains with alterations in DNA damage repair or cell cycle control were exposed to compounds and growth inhibition was measured relative to vehicle treated controls. The strain used in this assay is wt1

Only a part is listed here, and it is no random draw. Where a structure was tested more than once in an assay, its records may differ in their call. Activity calls are given as the source filed them. No stated cut-off is given here; in the data, active means growth inhibition above about 70%; inactive means the rest.

As for `NC(Cc1cnc[nH]1)C(=O)O` (stereo not given), the growth inhibition runs as follows: (at 1.2 µM) inactive: -3%; (at 3.7 µM) inactive: 24%; (at 11.0 µM) active: 93%; (at 33.0 µM) active: 98%; (at 100.0 µM) active: 99%.

Consider `O=C1OC(C(Cl)(Cl)Cl)Sc2ccccc21` (stereo not given), for which the growth inhibition (at 1.2 µM) is inactive: -2%; the growth inhibition (at 3.7 µM) is inactive: -1%; the growth inhibition (at 11.0 µM) is inactive: 2%; the growth inhibition (at 33.0 µM) is inactive: 11%; the growth inhibition (at 100.0 µM) is inactive: 23%.

In the case of `COc1cccc(C[N+](C)(CCCl)CCCl)c1[N+](=O)[O-]`, the growth inhibition runs as follows: (at 1.2 µM) inactive: -3%; (at 3.7 µM) inactive: 0%; (at 11.0 µM) inactive: -5%; (at 33.0 µM) inactive: 0%; (at 100.0 µM) inactive: 8%.

Consider `CC(C)c1nc(Nc2ccccc2)n(P(=O)(N(C)C)N(C)C)n1`, for which the growth inhibition is inactive: -19% (at 1.2 µM); inactive: -11% (at 3.7 µM); inactive: -26% (at 11.0 µM); inactive: 35% (at 33.0 µM); active: 95% (at 100.0 µM).

Consider `O=[N+]([O-])c1cc([N+](=O)[O-])c2nsnc2c1`, for which the growth inhibition (at 1.2 µM) was inactive: 5%; the growth inhibition (at 3.7 µM) is inactive: 46%; the growth inhibition (at 11.0 µM) is active: 100%; the growth inhibition (at 33.0 µM) is active: 99%; the growth inhibition (at 100.0 µM) is active: 99%.

Consider `FC1(F)SC2C(C1(F)F)C1(Cl)C(Cl)=C(Cl)C2(Cl)C1(Cl)Cl` (stereo not given), for which the growth inhibition was inactive: 14% (at 1.2 µM); active: 93% (at 3.7 µM); active: 99% (at 11.0 µM); active: 99% (at 33.0 µM); active: 98% (at 100.0 µM).

Consider `N#Cc1cc([N+](=O)[O-])cc([N+](=O)[O-])c1N`, for which the growth inhibition is inactive: 5% (at 1.2 µM); inactive: 14% (at 3.7 µM); inactive: 25% (at 11.0 µM); inactive: 52% (at 33.0 µM); active: 79% (at 100.0 µM).

`CN(C)P(=O)(N(C)C)n1c(Nc2ccccc2)nnc1-c1ccccc1`: the growth inhibition was inactive: 0% (at 1.2 µM); inactive: 11% (at 3.7 µM); inactive: 12% (at 11.0 µM); active: 98% (at 33.0 µM); active: 97% (at 100.0 µM).

The values are drawn from PubChem BioAssay (NCI).
